Results from ChEMBL document CHEMBL1141420, “Towards a new generation of potential antipsychotic agents combining D2 and 5-HT1A receptor activities” (J Med Chem, 2007).

Protein sequences, listed by entry. Tags and fused reporters are not part of them.
UniProt P61169, whole entry: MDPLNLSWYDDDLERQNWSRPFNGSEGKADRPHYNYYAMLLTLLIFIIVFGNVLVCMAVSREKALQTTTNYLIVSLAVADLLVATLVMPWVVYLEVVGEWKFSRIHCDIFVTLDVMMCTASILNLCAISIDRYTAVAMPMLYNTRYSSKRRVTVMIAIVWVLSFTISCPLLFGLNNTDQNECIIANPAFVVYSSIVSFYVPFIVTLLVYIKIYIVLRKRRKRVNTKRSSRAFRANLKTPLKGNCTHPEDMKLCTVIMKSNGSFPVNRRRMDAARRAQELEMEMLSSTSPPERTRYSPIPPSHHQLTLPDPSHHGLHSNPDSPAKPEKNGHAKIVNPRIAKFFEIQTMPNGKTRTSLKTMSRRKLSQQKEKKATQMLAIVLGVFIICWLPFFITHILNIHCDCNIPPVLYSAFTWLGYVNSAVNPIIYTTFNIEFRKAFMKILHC

How the values were obtained:
D(2) dopamine receptor = D(2) dopamine receptor (Rattus norvegicus, UniProt P61169); assay: Displacement of [3H]YM-09151-2 from rat striatum D2 receptor
Rattus norvegicus [1] = assay: Ratio of ED50 for LLR induction to ED50 for normalization in ip dosed rat; type: functional
Rattus norvegicus [2] = assay: Ratio of ED50 for catalepsy induction to ED50 for normalization in ip dosed rat; type: functional

## Fc1ccc(-c2cncc(CN3CCN(c4cccc5c4OCCO5)CC3)c2)cc1 [ADOPRAZINE]
D(2) dopamine receptor
  Ki: 3.98 nM
Rattus norvegicus [1]
  Ratio ED50: 0.2
Rattus norvegicus [2]
  Ratio ED50: >28
